The list is not random: actives were taken first. Their share in the collection is about 2.8%.
C2C12 statin = protects C2C12 myotubes from simvastatin toxicity | ATP luminescence, 48 h; scaled: DMSO 0, geranylgeraniol control 100 | rescue of ATP level, % at 7.49 µM | actives 0.78% (n = 330,000);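 active = mean ATP rescue above about 67%, or every replicate alone reaching that limit, limit read from the data, passing the limit was not always enough; inconclusive = no clear call, values can overlap the other calls; inactive = mean under the limit and some replicate under it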;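 also: myotubes were challenged with 10 µM simvastatin during compound exposure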
PGC1a acetyl inh = PGC1a acetylation modulation, inhibitor mode; actives 0.17% (n = 350,000); U2OS PGC1a acetylation, AlphaScreen anti-acetyl-lysine; with virally co-expressed GCN5 acetyltransferase; inhibition, % at 15.6 µM;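 active = every replicate shows inhibition of at least 40%; inconclusive = mean inhibition at least 40% but some replicate below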;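 also: 0% = neutral control wells and 100% = positive control wells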
PglD DTNB = PglD (C. jejuni) enzyme inhibition | inhibition, % at 12.5 µM | purified PglD enzyme, DTNB colorimetric CoA detection | actives 0.098% (n = 360,000) | AID 602405; in the data active = inhibition above about 16%, passing the limit was not always enough; inconclusive = no clear call, values can overlap the other calls
esBAF inh = SWI/SNF esBAF complex inhibition. mouse ES cells, Bmi1-luciferase knock-in reporter, 24 h; 100% = twice the neutral-well signal. actives 2% (n = 350,000). reporter increase, % at 12.5 µM; in the data active = activation above about 40%; inconclusive = no clear call, values can overlap the other calls;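 also: 0% = median of the plate's neutral control wells and 100% = double that signal; a rise in the Bmi1 reporter signal indicates esBAF inhibition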
UUG fidelity = modulators of yeast start codon fidelity, primary screen, whole organism, S. cerevisiae, single point, plate reader; S. cerevisiae UUG-firefly luciferase reporter, luminescence/redox ratio; activity score, % at 18.7 µM; actives 0.13% (n = 350,000);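 active means replicate mean at a twofold rise or more, about +100% in these data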;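 further: firefly luciferase made from a UUG start codon reports start codon fidelity; reporter light over untreated wells divided by growth signal over untreated wells; some hits fall short of that in this replicate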
E-selectin induc = E-selectin induction on HUVECs. P16581. HUVEC E-selectin immunofluorescence imaging; normalized: neutral wells 0, TNF-alpha wells 100. activation, % at 7.58 µM. actives 0.37% (n = 260,000). AID 686992;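 active = mean E-selectin-positive cell signal at least 10% of the positive control, reached in at least 60% of replicates, without over 20% cell loss; inconclusive = no rule given, readout overlaps actives, possibly toxicity-flagged; inactive = the rest, including those meeting only one limit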
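assay system = HUVEC, human umbilical vein endothelial cells | input = 3,000 HUVEC seeded per well | medium = EGM-2 growth medium on 0.1% gelatin-coated wells | dosing = one compound dose added by pin transfer | signal = immunofluorescence imaging | read-out basis = % PE-positive cells | control set = TNF-alpha, DMSO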
Starred values were filed as active, the others as inactive; ? = inconclusive; / = no result.

SMILES | C2C12 statin | PGC1a acetyl inh | PglD DTNB | esBAF inh | UUG fidelity | E-selectin induc
Cn1cc([N+](=O)[O-])c(C(=O)Nc2nc(-c3ccc(Cl)cc3)cs2)n1 | / | 62.9* | -5.7 | -47.3 | -11.4 | /
CC(=O)Nc1nc(-c2ccc([N+](=O)[O-])cc2)cs1 | / | / | / | / | / | -2.0
CCC(=O)N1[C@@H]2c3ccc(C4=CCCC4)c(=O)n3C[C@@H]2[C@@H](CO)[C@@H]1C(=O)NCc1ccc(F)cc1 | 14.5 | / | -3.8 | -2.5 | 8.8 | -0.2
CC(C)CC1C(=O)N(Cc2cn(CCC3OCCCO3)nn2)CCS(=O)(=O)N1Cc1ccc(-c2ccc(Cl)cc2)cc1 (stereo not drawn) | -1.1 | 0.4 | / | -4.6 | / | 0.0
CC(C)CC1C(=O)N(Cc2cn(CCC3OCCCO3)nn2)CCS(=O)(=O)N1Cc1ccc(-c2ccc(Cl)nc2)cc1 (stereo not drawn) | -16.1 | / | 1.2 | 58.2* | -9.8 | -0.1
COc1cc(NC(=O)CN(C)S(=O)(=O)c2cccs2)cc(OC)c1 | 7.7 | / | -0.5 | 6.1 | -12.9 | /
CCOc1ccc(NC(=O)CN(C)S(=O)(=O)c2cccs2)cc1 | -4.2 | 0.3 | 4.1 | 54.0* | 19.0 | /
Cc1ccc(NC(=O)CN(C)S(=O)(=O)c2cccs2)cc1F | -3.2 | -2.9 | -0.4 | 50.8* | -12.0 | /
Cc1ccc(NC(=O)CN(C)S(=O)(=O)c2cccs2)cc1C | -8.0 | 3.6 | -3.8 | 98.3* | -26.0 | /
COc1ccc(C(=O)NCCC2=CCCCC2)cc1OC1CCN(C(C)C)CC1 | -17.1 | -22.5 | -7.4 | 60.3* | -15.2 | /
Cc1noc(C)c1NC(=O)N(C)C[C@@H]1Oc2c(NC(=O)NC(C)C)cccc2C(=O)N([C@H](C)CO)C[C@@H]1C | / | -1.2 | 1.9 | -1.5 | 19.2 | -1.9
CCOC(=O)c1ccc(Nc2ncnc3c2cnn3C)cc1 | 7.8 | -9.7 | -1.0 | 24.4 | -30.1 | /

Whole records, looked up by structure:
`COc1cc(NC(=O)CN(C)S(=O)(=O)c2cccs2)cc(OC)c1` reads C2C12 statin = 7.7; PGC1a acetyl inh = /; PglD DTNB = -0.5; esBAF inh = 6.1; UUG fidelity = -12.9; E-selectin induc = /
`CCC(=O)N1[C@@H]2c3ccc(C4=CCCC4)c(=O)n3C[C@@H]2[C@@H](CO)[C@@H]1C(=O)NCc1ccc(F)cc1` reads C2C12 statin = 14.5; PGC1a acetyl inh = /; PglD DTNB = -3.8; esBAF inh = -2.5; UUG fidelity = 8.8; E-selectin induc = -0.2

More compounds:
SMILES | C2C12 statin | PGC1a acetyl inh | PglD DTNB | esBAF inh | UUG fidelity | E-selectin induc
Cn1ncc2c(O/N=C(\N)c3ccc(C(C)(C)C)cc3)ncnc21 | / | 95.9* | -4.2 | / | 22.6 | /
C[C@@H]1CN([C@H](C)CO)C(=O)Cc2cc(NC(=O)Cc3cn(C)c4ccccc34)ccc2O[C@@H]1CN(C)C(=O)Nc1ccc(F)cc1 | 41.7 | 9.8 | / | 0.4 | / | 0.2
COc1ccc2oc(=O)c(C(=O)N3CCN(c4ccccc4C)CC3)cc2c1 | -18.1 | -3.2 | / | 75.7* | -16.8 | /
COc1ccc2oc(=O)c(C(=O)Nc3ccccc3C)cc2c1 | 3.6 | / | -1.0 | 3.9 | -25.2 | /
COc1ccc2oc(=N)c(C(=O)Nc3cccc(C)c3C)cc2c1 | 6.0 | -5.6 | -5.0 | 79.6* | 0.1 | /
COc1ccc2oc(=O)c(C(=O)N3CCN(c4ccccc4)CC3)cc2c1 | 5.3 | 1.7 | -0.6 | 21.3 | -11.9 | /
COc1ccc2oc(=N)c(C(=O)Nc3ccc(C)cc3)cc2c1 | -19.2 | / | 8.0 | 43.0* | -9.1 | /
COc1ccc2oc(=N)c(C(=O)Nc3ccccc3Cl)cc2c1 | -40.8 | 26.3 | -5.3 | 56.4* | -15.7 | 0.0
C[C@@H]1CN([C@@H](C)CO)C(=O)Cc2cc(NC(=O)C3CCCCC3)ccc2O[C@H]1CN(C)S(=O)(=O)c1ccc(F)cc1 | 8.4 | -7.7 | -2.1 | -5.3 | 8.4 | -0.1
CC(C)=CCN(C(=O)C#Cc1ccccc1)[C@H](CO)c1ccccc1 | / | -4.3 | 1.9 | / | 14.4 | /
COc1ccccc1NC(=O)N(C)C[C@H]1OCc2ccccc2-c2c(n(C)c3ccccc23)C(=O)N([C@H](C)CO)C[C@H]1C | 23.7 | -3.9 | -1.7 | 1.8 | 10.8 | -0.3
CSCC(=O)N1CCC(n2nccc2NC(=O)c2ccc3c(c2)OCO3)CC1 | 2.5 | 10.4 | -0.8 | 58.3* | 0.8 | /

An excerpt from above in order of their number in PglD DTNB, low to high.
compound	PglD DTNB
COc1ccc2oc(=N)c(C(=O)Nc3cccc(C)c3C)cc2c1	-5.0
C[C@@H]1CN([C@@H](C)CO)C(=O)Cc2cc(NC(=O)C3CCCCC3)ccc2O[C@H]1CN(C)S(=O)(=O)c1ccc(F)cc1	-2.1
CSCC(=O)N1CCC(n2nccc2NC(=O)c2ccc3c(c2)OCO3)CC1	-0.8

(next part)
SMILES | C2C12 statin | PGC1a acetyl inh | PglD DTNB | esBAF inh | UUG fidelity | E-selectin induc
CSCC(C)N1CCC(n2nccc2NC(=O)c2ccc3c(c2)OCO3)CC1 (stereo not drawn) | 2.6 | -0.8 | -1.5 | 4.0 | -6.2 | /
CCCN1C[C@H](C)[C@H](OC)CN(C)C(=O)c2cc(NC(=O)c3ccc(F)cc3)ccc2OC[C@@H]1C | -21.8 | -6.0 | -0.3 | -0.8 | 14.2 | 0.1
Cc1ccc2nc(Nc3ccccc3)c(/C=N/O)c(=O)n2c1 | 9.6 | -9.9 | 9.5 | 0.5 | 4.4 | /
COc1ccc(Nc2nc3ccc(C)cn3c(=O)c2/C=N/O)cc1 | 109.2* | 11.7 | 9.2 | -0.1 | -11.7 | 0.6
CCC(=O)N1C[C@H](C)[C@@H](OC)CN(C)C(=O)c2cc(NC(=O)c3cc(C)on3)ccc2OC[C@@H]1C | -2.9 | -13.7 | / | 0.6 | / | -0.3
Cc1oc(C(=O)O)cc1COc1cccc2cccnc12 | 123.6* | -3.2 | / | 0.8 | / | /
COC(=O)c1cc(-c2c(C)nn(-c3ccccc3)c2C)n[nH]1 | -11.0 | 9.4 | 2.1 | 64.4* | -11.4 | /
Cc1nn(-c2ccccc2)c(C)c1C(=O)OCC(=O)Nc1ccccc1 | 16.7 | -0.7 | 1.2 | 55.7* | -9.1 | /
Cc1nn(-c2ccccc2)c(C)c1C(=O)OCC(=O)Nc1ccccc1C(F)(F)F | 6.3 | -6.4 | 3.0 | 46.0* | -14.6 | 0.4
COc1ccccc1NC(=O)COC(=O)c1c(C)nn(-c2ccccc2)c1C | 8.3 | / | -3.5 | 59.3* | -6.4 | /
COC(=O)c1cn(CC(=O)N2CCOCC2)nn1 | / | 2.5 | 1.4 | / | 44.0 | /
Cc1nn(-c2ccccc2)c(C)c1C(=O)OCC(=O)N(C)c1ccccc1 | 5.5 | -3.2 | -0.4 | 12.5 | -14.0 | -0.6
Cc1nc(COC(=O)c2c(C)nn(-c3ccccc3)c2C)cs1 | 5.7 | 9.7 | -6.6 | 58.3* | -8.2 | /
N#Cc1cccc(-c2ccc(C3[C@H]4CNC[C@@H]3N4C(=O)Nc3ccc(F)cc3)cc2)c1 (stereo partly drawn) | / | 6.4 | / | / | / | 0.6
O=C(c1ccco1)N1CCN(C(=O)C2CC2)CC1 | -4.9 | -0.3 | 0.2 | 5.7 | -11.5 | 36.9*
O=C(CN1CCN(C(=O)c2ccco2)CC1)Nc1cc(C(F)(F)F)ccc1Cl | 104.2* | 3.1 | 4.1 | -3.6 | -11.9 | /
O=C(CN1CCC(C(O)(c2ccccc2)c2ccccc2)CC1)Nc1cc(Cl)ccc1Cl | 90.2* | -1.6 | / | -4.0 | -7.9 | /
O=C(CN1CCOCC1)Nc1cc(C(F)(F)F)ccc1Cl | 2.3 | -0.9 | -4.3 | -1.4 | -5.4 | -0.1
O=C(c1ccco1)N1CCN(Cc2ccc(F)cc2Cl)CC1 | 2.2 | 3.6 | -3.4 | 45.9* | 7.0 | 0.0
COc1cccc(CN2[C@H](CO)[C@@H]3c4ccccc4N(C(=O)C4CC4)C[C@@H]32)c1 | 11.9 | -3.0 | 1.1 | -2.7 | 3.7 | 0.0
COc1ccc(S(=O)(=O)Nc2ccc3c(c2)CC(=O)N([C@H](C)CO)C[C@@H](C)[C@@H](CN(C)Cc2ccc(Cl)c(Cl)c2)O3)cc1 | ? | -21.7 | -3.4 | -1.9 | -1.3 | -0.3
COc1ccccc1CNC(=O)C[C@@H]1C[C@H]2c3cc(NC(=O)NC4CCCC4)ccc3O[C@H]2[C@H](CO)O1 | -1.9 | 1.6 | -0.5 | 1.9 | 27.2 | 0.0

Screening results as filed in PubChem.
